Binding of CDR-mutated scFvs to a peptide of the spike HR2 region

Data: MIT Lincoln Laboratory AlphaSeq set, Engelhart et al. 2022, doi:10.1038/s41597-022-01779-4, as distributed in FLAb.

Antigen: PDVDLGDISGINAS, a 14-residue peptide of the SARS-CoV-2 spike HR2 region.

Parent scFv Ab-14: VH joined to VL by three GGGGS repeats. Changes lie in the light chain CDRs alone.
VH: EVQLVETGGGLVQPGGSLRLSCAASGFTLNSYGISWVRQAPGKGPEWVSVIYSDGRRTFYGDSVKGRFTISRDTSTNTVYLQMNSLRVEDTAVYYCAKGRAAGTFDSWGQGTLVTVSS
VL: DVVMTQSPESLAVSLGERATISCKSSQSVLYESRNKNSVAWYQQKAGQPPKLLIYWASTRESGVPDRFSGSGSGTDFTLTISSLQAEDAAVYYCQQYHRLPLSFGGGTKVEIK

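Variants in AAYL50 differ from the parent at up to three CDR positions; double and triple changes were sampled at random. The scFvs were displayed on barcoded MATa yeast, the peptide on MATalpha yeast. After mating in shaken culture at 30 °C for 16 h, diploids were selected and their barcode pairs sequenced. The ratio of observed to expected reads was calibrated, replicate by replicate, on BCL2-family standards whose Kd was known from biolayer interferometry. The assay was run in three technical replicates.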

Variants are written as CDR1, CDR2 and CDR3 of the light chain (limits as in the source). Parent: KSSQSVLYESRNKNSVA, WASTRES, QQYHRLPLS. All variants listed here change T59 of the VL, counted from its first residue. Scale: log10 of Kd in nM, estimated from mating counts; low values are strong binders. "nd" marks a missing value. The strain was present, yet no cells mated with the target were sequenced in that replicate, which points to weak or no binding. In this assay the parent's reference entry averaged 0.65; its copy inside this library read 1.68.

For KSSQSVLYESRNKNSVA | WASKRES | GQYHRLPLS, the assay gave 4.61, 4.14, 4.89. Variant KSSQSVLYESRNKNSVA | WASDRES | QQYVRLWLS gave 1.35, 1.53, 1.67. Variant KSSQSVAYESRNKLSVA | WASARES | QQYHRLPLS gave 3.73, 4.13, nd. Variant KSSQSVWYESRNKNSVA | WASGRES | QQYHRLPQS showed nd, nd, nd. Variant KSSQSVLYESRNKNSVA | WASQRES | QHYHRLPLS showed 3.15, nd, 2.47. Variant KSSQSVLYESRNPNSVA | WASNRES | QMYHRLPLS showed 3.11, 3.42, nd. Variant KSSQSVLYESRNKLSVA | WASSRES | QQYHRLCLS gave nd, nd, nd. Variant KSSVSVLYESRNKNSVA | WAEYRES | QQYHRLPLS showed 1.21, 1.41, 1.31. With KSSQSVLYESRNKNSVA | WHSVRES | QQYHRLPLS the result was 3.65, 3.16, 4.11.

With KSSQSVLYECRNKNSVA | WASRRES | QQYHRLPLS the result was 3.69, nd, nd. For KSSQSVLYESRNKLFVA | WASLRES | QQYHRLPLS, the assay gave nd, nd, 4.04. Variant KSSQSVLYESGNKNSFA | WASNRES | QQYHRLPLS showed 4.24, nd, nd. With KSSQSVLYESMNKNSVA | WASARES | QQYHRLPLS the result was nd, nd, nd. For KSSQSVLYESREKNSVA | WASLRES | QQYHRKPLS, the assay gave 0.63, 0.94, 0.61. With KSSQSVLYESRNKNSVA | WASVRES | QQYHRLELS the result was 1.73, 1.72, 1.68. For KSSQSVLYESRNKNSVA | WWSARES | KQYHRLPLS, the assay gave nd, nd, nd. Variant KSSQSVLYESLNKNSVA | WASVRES | QQYHRLPLS showed 2.24, 2.36, nd. Variant KSSQSVLYESRNCLSVA | WASVRES | QQYHRLPLS showed 1.86, 2.39, 1.43.

Variant KSSQSVLYTSRNKNSVA | WAKGRES | QQYHRLPLS gave nd, 4.66, nd. With KSSQSVLYESRNKNSVA | WASLRES | QVYHRLQLS the result was 0.83, 0.76, 1.16. For KSSQSVLYEPRNKNSVK | WASPRES | QQYHRLPLS, the assay gave nd, nd, nd. With KSSQSVLYESRQKNSVA | WASARES | QQYHRLPLS the result was 2.35, 2.53, 2.17. With KSSQSVLYESRNKNSVE | WASLRGS | QQYHRLPLS the result was nd, nd, nd. With KSSWSVLYESRNKNSVA | AASSRES | QQYHRLPLS the result was 0.01, 0.31, 0.09. Variant KSSQSVLYESRNKNSVA | WASVRES | QQYHRLSTS gave 1.19, 1.38, 1.37. Variant KSSQSVLYCSRNKNSVA | WDSIRES | QQYHRLPLS showed 2.09, 2.18, 2.91. Variant KSSQSVLYESRNHNSVA | WASNRES | QSYHRLPLS gave 2.35, 2.72, 2.63.

For KSSQSELYESRNKNSVA | WASHREW | QQYHRLPLS, the assay gave 0.89, 1.24, 1.09. For KSSQSVLYESRNKNSVA | WASMRRS | QQYHRLPLS, the assay gave 2.66, 2.23, 3.20. Variant KSSQSVLYESRNKNSVA | WASSRES | QFYHWLPLS showed 1.25, 1.61, 1.41. With KSSQSVLYESRNKNSVA | WAACRES | QQYHRLPES the result was 2.63, 2.22, 2.83. Variant KSHQSVLYESRNKNSVA | WAIWRES | QQYHRLPLS gave 4.82, 3.22, nd. Variant KSSQSWLYESRNKNSVA | WASLRES | QQCHRLPLS showed nd, nd, nd. Variant KSSQSVLYESRNKTSQA | WASYRES | QQYHRLPLS showed nd, nd, nd. For VSSQSVLYESRNKTSVA | WASKRES | QQYHRLPLS, the assay gave 4.02, 4.29, nd. For KSSQSVLYESRNKNSVA | WASPRES | QQYHRLPLS, the assay gave nd, nd, nd.

Variant KSSQSVLYESRNKNSVA | WASDREW | QQYHRLWLS showed 3.39, 2.48, 2.56. Variant KSSQSVLYESRNKNSVA | WASFRES | QQYHRYPLV gave 1.05, 1.36, 1.31. Variant KSSQSVLYESRNKQSVA | WASIRES | QQYHREPLS showed nd, nd, nd. With KSSQVVLYESRNKNSVA | WASVRES | QQYHRLPLS the result was 1.53, 1.01, 1.67. With KSSQSVLYESRNKNSVA | HASPRES | QQYHRLPLS the result was nd, nd, 3.64. For KSSQSVLYESRNKNSVA | WASASES | QKYHRLPLS, the assay gave nd, nd, 4.95. Variant KSSQSVLYESRNKNSVA | WASLRES | SQYHRLPLG showed 2.64, 2.71, 2.90. With KSSQSSLYESRNKNSVA | WASVRES | QQYGRLPLS the result was 0.93, 0.78, 0.72. For KSSQSDLYESRNKNSRA | WASVRES | QQYHRLPLS, the assay gave 5.25, nd, 4.35.

Variant KSSQSVLYESRYKNSVA | WASWRES | QQHHRLPLS gave 3.20, 2.62, nd. For KSSQSVLYESRNKQSVA | WASLRES | QQYHRLPLS, the assay gave 1.24, 1.23, 1.49. Variant KASQSVLFESRNKNSVA | WASLRES | QQYHRLPLS gave 0.44, 0.68, 0.65.

From the list, the first 5 with no signal in any replicate:

For KSSQSVWYESRNKNSVA | WASGRES | QQYHRLPQS, the assay gave nd, nd, nd.
For KSSQSVLYESRNKLSVA | WASSRES | QQYHRLCLS, the assay gave nd, nd, nd.
For KSSQSVLYESMNKNSVA | WASARES | QQYHRLPLS, the assay gave nd, nd, nd.
For KSSQSVLYESRNKNSVA | WWSARES | KQYHRLPLS, the assay gave nd, nd, nd.
For KSSQSVLYEPRNKNSVK | WASPRES | QQYHRLPLS, the assay gave nd, nd, nd.

As a blank, each scFv also met three strains without target: over library AAYL50, 18% of these pairings were detected, typically at 4.19 and seldom below 2.99.